Literature values, collected in patent EP2179733A1, “PHARMACEUTICAL COMPOSITION COMBINING AN ANTIMICROBIAL AGENT AND A SELECTIVE ENKEPHALINASE ENZYME INHIBITOR, WHICH CAN BE USED TO CONTROL AND TREAT ACUTE BACTERIAL DIARRHOEA” (World Trade Import-Export, WTIE A.G., priority 2007, dated 2009).

Conditions: orally administered

Compound: O=C(O)c1cn(C2CC2)c2cc(N3CCNCC3)c(F)cc2c1=O [Ciprofloxacin]
- time to maximum blood concentrations after delivery: one
